Measured values reported in patent US5972598A, “Methods for preventing multidrug resistance in cancer cells” (priority 1995, dated 1999).

Amino acid sequences for entries named in this document (tags omitted).
UniProt P08183, whole entry: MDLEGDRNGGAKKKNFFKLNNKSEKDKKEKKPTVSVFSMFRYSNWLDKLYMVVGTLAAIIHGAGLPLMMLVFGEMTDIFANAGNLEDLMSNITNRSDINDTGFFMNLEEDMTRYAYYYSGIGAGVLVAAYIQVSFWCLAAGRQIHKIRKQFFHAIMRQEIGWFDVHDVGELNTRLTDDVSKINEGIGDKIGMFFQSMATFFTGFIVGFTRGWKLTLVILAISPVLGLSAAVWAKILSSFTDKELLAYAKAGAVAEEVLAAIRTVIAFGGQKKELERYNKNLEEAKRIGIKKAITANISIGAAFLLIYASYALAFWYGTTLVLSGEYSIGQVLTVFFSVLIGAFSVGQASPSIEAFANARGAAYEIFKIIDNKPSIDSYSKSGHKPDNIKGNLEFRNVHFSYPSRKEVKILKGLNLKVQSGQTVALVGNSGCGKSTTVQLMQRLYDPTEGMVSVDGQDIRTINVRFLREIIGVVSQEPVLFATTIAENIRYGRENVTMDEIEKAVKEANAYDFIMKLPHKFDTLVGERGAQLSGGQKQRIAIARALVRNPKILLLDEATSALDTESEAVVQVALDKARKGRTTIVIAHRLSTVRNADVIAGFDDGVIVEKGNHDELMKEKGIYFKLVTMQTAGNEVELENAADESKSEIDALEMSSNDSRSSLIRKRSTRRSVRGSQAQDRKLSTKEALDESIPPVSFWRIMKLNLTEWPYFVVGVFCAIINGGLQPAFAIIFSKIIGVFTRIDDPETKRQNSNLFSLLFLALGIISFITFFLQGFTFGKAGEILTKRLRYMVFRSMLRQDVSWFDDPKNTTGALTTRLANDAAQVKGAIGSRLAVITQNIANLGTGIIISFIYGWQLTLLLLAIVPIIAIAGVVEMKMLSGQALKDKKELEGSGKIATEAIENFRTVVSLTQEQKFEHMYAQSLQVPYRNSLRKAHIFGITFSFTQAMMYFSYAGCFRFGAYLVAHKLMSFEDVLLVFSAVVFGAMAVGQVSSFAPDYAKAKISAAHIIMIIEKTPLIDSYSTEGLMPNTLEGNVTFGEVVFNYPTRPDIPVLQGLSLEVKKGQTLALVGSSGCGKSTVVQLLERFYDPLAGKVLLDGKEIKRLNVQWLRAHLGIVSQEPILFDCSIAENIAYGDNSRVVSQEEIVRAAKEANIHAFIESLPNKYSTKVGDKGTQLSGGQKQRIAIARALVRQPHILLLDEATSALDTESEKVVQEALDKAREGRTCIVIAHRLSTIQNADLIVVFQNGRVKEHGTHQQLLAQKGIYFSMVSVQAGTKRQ

Molecular target: P-glycoprotein (Homo sapiens, UniProt P08183)

IL-2
effect on P-glycoprotein activity (Rh123 accumulation): No apparent effects on P-glycoprotein
